Laboratory results as given in US6322789A, “HLA-restricted hepatitis B virus CTL epitopes” (Epimmune, Inc., priority 1995, dated 2001).

Key:
[1] = test system: Jurkat A2.1/K^b target cells; assay: CTL induction from splenocytes of mice primed subcutaneously with purified HBV in IFA (Example II); format: cell-based, A2.1/K^b transgenic mice (effector cells)
[2] = test system: Jurkat A2/K^b target cells; assay: In vivo HBc 18-27-specific CTL priming by CTL and T helper epitopes (Example IV); parameters: species or system HLA-A2.1/K^b transgenic mice; conditions: 100 μg subcutaneously, transgenic mice
Protocol: Animals were primed subcutaneously with 100 μg of 875.23 (T helper epitope) in Complete Freund's Adjuvant (CFA) followed 9 days later (subcutaneously) with […]. Splenocytes were removed 3 weeks later, cultured for 6 days in the presence of LPS-blasts that had been incubated with the CTL epitope (875.15), 100 μg for 2 hrs before being washed and added to the culture as a source of antigen presenting cells. The presence of HBc 18-27 (875.15)-specific CTL was determined using a standard 6 hr […] release assay with Jurkat A2.1/K^b cells as targets.
This example describes experiments which define the relative in vivo HBV-specific CTL priming efficiency of peptides expressing HBV CTL epitopes alone, CTL epitopes mixed with peptides containing T helper epitopes or CTL epitopes physically linked to T helper epitopes.
Nine days later each of the following peptides were injected subcutaneously into two unprimed and two helper-primed mice, 100 μg/mouse in incomplete Freund's adjuvant (IFA).
Three weeks after priming with the CTL epitope, splenocytes were in vitro restimulated with LPS blasts coated with HBc 18-27 (coating was achieved by incubating 30×10^6 LPS blasts with 100 μg of HBc18-27 in one ml of medium; after 1-2 hr at 37° C., the cells were washed). […]

Q: How did the “recognition of truncation peptides by CTL raised against the larger peptide” value [1] turn out when “Phe-Leu-Pro-Ser-Asp-Phe-Phe-Pro-Ser-Val-OH (FLPSDFFPSV) [Peptide 875.15]” was run?
A: recognized by the CTL raised against the larger epitopes

Q: And the “ability to induce in vitro CTL from splenocytes of HBV-primed mice” value ([1]; FIGS. 3 and 4)?
A: clearly able to induce in vitro CTL

Q: What about the “HBc18-27-specific CTL response” value [2] of the same substance?
A: no HBc 18-27-specific CTL response was detected

Q: And the “HBc18-27-specific CTL response” value ([2]; listed as CTL peptide)?
A: did not induce HBc-specific CTL
